Results on one molecule are retold here after US20140187548A1, “6 SUBSTITUTED IMIDAZOPYRAZINES FOR USE AS MPS-1 AND TKK INHIBITORS IN THE TREATMENT OF HYPERPROLIFERATIVE DISORDERS” (BAYER INTELLECTUAL PROPERTY GMBH, priority 2010, published 2014).

The chains behind the UniProt entries cited, without tags or fusion partners.
UniProt P33981, whole entry: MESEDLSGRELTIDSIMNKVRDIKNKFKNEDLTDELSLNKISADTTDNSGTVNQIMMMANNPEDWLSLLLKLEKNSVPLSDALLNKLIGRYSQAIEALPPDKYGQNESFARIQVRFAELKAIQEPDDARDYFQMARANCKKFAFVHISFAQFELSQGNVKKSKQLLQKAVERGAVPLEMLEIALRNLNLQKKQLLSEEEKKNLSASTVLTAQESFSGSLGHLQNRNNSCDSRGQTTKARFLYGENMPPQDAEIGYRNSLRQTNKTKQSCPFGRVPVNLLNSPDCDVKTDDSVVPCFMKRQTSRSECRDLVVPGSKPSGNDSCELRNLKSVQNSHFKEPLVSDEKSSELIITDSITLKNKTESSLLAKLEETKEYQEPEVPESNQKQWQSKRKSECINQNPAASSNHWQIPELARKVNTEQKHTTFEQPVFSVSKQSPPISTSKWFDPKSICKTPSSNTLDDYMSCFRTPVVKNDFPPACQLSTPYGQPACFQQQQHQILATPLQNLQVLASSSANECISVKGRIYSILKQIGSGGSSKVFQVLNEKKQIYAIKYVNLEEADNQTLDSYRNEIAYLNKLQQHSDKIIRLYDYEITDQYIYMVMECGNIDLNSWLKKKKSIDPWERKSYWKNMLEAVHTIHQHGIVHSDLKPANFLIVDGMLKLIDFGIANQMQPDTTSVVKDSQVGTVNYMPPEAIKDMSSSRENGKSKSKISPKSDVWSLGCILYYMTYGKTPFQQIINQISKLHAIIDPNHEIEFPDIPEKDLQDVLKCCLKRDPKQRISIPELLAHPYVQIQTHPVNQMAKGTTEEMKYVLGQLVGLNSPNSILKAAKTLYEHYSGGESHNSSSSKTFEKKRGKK

The target of this test is human kinase Mps-1 (Homo sapiens, UniProt P33981). Description: Mps-1 kinase assay (TR-FRET). Conditions: read-out: Mps-1 IC50; N-terminally GST-tagged human full length recombinant Mps-1; 10 μM ATP; 1 μM peptide substrate; 15 min pre-incubation; 60 min at 22° C. (TR-FRET usually uses a lanthanide donor and a delayed reading to cut background.)

pIC50: −log10 of the molar value.

As usually defined, the pIC50 is the IC50 on a negative log10 scale, so that one unit is a factor of ten.

Regarding `Cc1cc(-c2cnc3c(NCC4CN(C)CCO4)nc(-c4ccc(F)cc4)cn23)ccc1C(=O)NC1CC1` (stereo not shown), the pIC50 was 7.43.
